According to US20060089325A1, “Antisense modulation of PTP1B expression” (priority 2004, published 2006):

Details: rat, in vivo

With `CN(CCOc1ccc(CC2SC(=O)NC2=O)cc1)c1ccccn1` (stereo not shown) [Rosiglitazone] the AST/ALT was “no significant effects”.
